Measured values from IntAct's records for PubMed 16626738.

B1: G/T mismatch-specific thymine DNA glycosylase (Homo sapiens), Q13569 (parent)
chain: MEAENAGSYSLQQAQAFYTFPFQQLMAEAPNMAVVNEQQMPEEVPAPAPAQEPVQEAPKGRKRKPRTTEPKQPVEPKKPVESKKSGKSAKSKEKQEKITDTFKVKRKVDRFNGVSEAELLTKTLPDILTFNLDIVIIGINPGLMAAYKGHHYPGPGNHFWKCLFMSGLSEVQLNHMDDHTLPGKYGIGFTNMVERTTPGSKDLSSKEFREGGRILVQKLQKYQPRIAVFNGKCIYEIFSKEVFGVKVKNLEFGLQPHKIPDTETLCYVMPSSSARCAQFPRAQDKVHYYIKLKDLRDQLKGIERNMDVQEVQYTFDLQLAQEDAKKMAVKEEKYDPGYEAAYGGAYGENPCSSEPCGFSSNGLIESVELRGESAFSGIPNGQWMTQSFTDQIPSFSNHCGTQEQEEESHA

Variants of: B1
Details: with sumo2_human SUMO2
F315A was tested, and the “effect of a mutation on the interaction” value was “disrupting interaction strength”. With L319G the “effect of a mutation on the interaction” value was “with no effect”. In the case of D323A, the “effect of a mutation on the interaction” value is reported as “with no effect”.
